# Tested on: activated partial-thromboplastin time (APTT)
# Experiment: Activated partial thromboplastin time after unfractionated heparin in the pilot study
# Format: in vivo, human
# Protocol: Patients were recruited from the Centro de Salud and the Centro Modelo de Cardiologia, Tucuman, Argentina. Inclusion criteria were chest pain within the previous 24 hours associated with ST-segment depression (>0.5 mm) and either ECG evidence of ischemia or previously documented coronary artery disease. Exclusion criteria were persistent ST-segment elevation and increased levels of the MB isoenzyme of creatine kinase (CK-MB) consistent with acute myocardial infarction, revascularization procedures within the preceding 6 months, malignancy, pregnancy, renal or hepatic diseases, use of anticoagulant therapy, treatment with anti-inflammatory drugs, or contraindication of the study drugs. […] Both groups received aspirin for 30 days. The dose range was 100 to 300 mg per day at the discretion of the treating physician. CK-MB levels were measured before randomization. Additional assays were performed after an episode of chest pain to confirm the diagnosis of acute MI. All patients received subcutaneous LMWH (either nadroparin 87 IU/kg BID or enoxaparin 1 mg/kg BID) or intravenous UFH given as an initial bolus of 5000 IU followed by continuous infusion at 1000 IU per hour for 7 days or until discharge from the hospital. The activated partial-thromboplastin time (APTT) was used to assess the degree of anticoagulation in patients receiving intravenous unfractionated heparin. Patients were tested every 12 hours on the first day and every 24 hours subsequently. The APTT was maintained in the range 45 to 87 seconds (normal value, 30±5 seconds).
# The nature of the quantitative variables distribution was assessed by the Shapiro-Wilk test. Differences between the 2 treatment groups were analyzed by the Student's t test (independent samples) or the Mann-Whitney test, according to the nature of the distribution. Differences in terms of activated partial thromboplastin time after unfractionated heparin were assessed by a 2-way ANOVA model, with repeated measures in one of the factors (Student Newman-Keuls post-hoc test). Univariate associations between qualitative variables were assessed by X^2 (Yates corrected) and Spearman rank-order correlations.
smiles,measurement,setting,value
"Cc1cnc(NC(=O)C2=C(O)c3ccccc3S(=O)(=O)N2C)s1 [Meloxicam, 4-hydroxy-2-methyl-N-(5-methyl-2-thiazolyl)-2H-1,2-benzothiazine-3-carboxamide-1,1-dioxide]","APTT in therapeutic range (45-87 s), %",Day 1 (first 24 hours),67.7%
same,"APTT over therapeutic range (>87 s), %",Day 1 (first 24 hours),6.5%
same,"APTT under therapeutic range (<45 s), %","Day 1 (first 24 hours), listed as Melox",25.8%
same,"APTT under therapeutic range (<45 s), %","Day 1 (first 24 hours), listed as meloxicam",26%
same,"APTT in therapeutic range (45-87 s), %",Day 2,79.7%
same,"APTT over therapeutic range (>87 s), %",Day 2,16%
same,"APTT under therapeutic range (<45 s), %",Day 2,3.6%
same,"APTT in therapeutic range (45-87 s), %",Day 3,52.3%
same,"APTT over therapeutic range (>87 s), %",Day 3,47.7%
same,"APTT under therapeutic range (<45 s), %",Day 3,0%
same,"APTT in therapeutic range (45-87 s), %",Day 4,58.3%
same,"APTT over therapeutic range (>87 s), %",Day 4,41.7%
same,"APTT under therapeutic range (<45 s), %",Day 4,0%

# Source: patent US20070099907A1 (priority 2002, published 2007)
